Antibody variant affinities, Ab-14 heavy chain, assay B

Source: Li et al. 2023 (doi:10.1038/s41467-023-39022-2), MIT Lincoln Laboratory and A-Alpha Bio; data file from the FLAb repository.

The target is the same throughout: PDVDLGDISGINAS, from the HR2 region of SARS-CoV-2 spike.

Parent: Ab-14, a human scFv built as VH, the linker GGGGSGGGGSGGGGS, VL. Only the CDRs of the heavy chain vary.
VH: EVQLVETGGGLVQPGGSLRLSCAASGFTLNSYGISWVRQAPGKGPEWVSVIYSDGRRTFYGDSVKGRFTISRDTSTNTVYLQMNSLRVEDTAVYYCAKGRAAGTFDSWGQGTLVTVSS
VL: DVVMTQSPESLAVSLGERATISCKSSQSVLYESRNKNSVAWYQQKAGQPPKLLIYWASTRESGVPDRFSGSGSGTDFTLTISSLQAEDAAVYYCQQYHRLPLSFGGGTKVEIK

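Phage display of a naive human antibody library on the peptide gave the parent. Designed CDR sequences, proposed from the first random library and measured here. Several design methods are mixed in this list. AlphaSeq pools MATa yeast showing the antibodies with MATalpha yeast showing the peptide. Binding brings cells together so that they mate, and sequencing counts the barcode pairs among the diploids. The ratio of observed to expected reads was calibrated, replicate by replicate, on BCL2-family standards whose Kd was known from biolayer interferometry. The assay was run in six technical replicates.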

Variants are written as CDR1, CDR2 and CDR3 of the heavy chain (limits as in the source). Parent: GFTLNSYGIS, VIYSDGRRTFYGDSVK, GRAAGTFDS. Values are apparent Kd, the geometric mean of the replicates that gave a signal; lower means stronger binding. "no signal" means that the variant was in the library but no mating with the target was seen in any replicate; the authors take this as a sign of poor binding, and no number exists. Empty control strains, which show no peptide, gave a signal in 1% of pairings with all heavy chain designs; the median was 120 nM and 95% of these signals were weaker than 7.0 nM. No background was subtracted. For each scFv, signals with the empty controls are counted beside the result. Values of this round are not directly comparable with the first-round values of the same sequences. In the paper, a design with two or fewer of six values counts as a poor binder. Of ten entries with the parent sequence, four were seen in most replicates (averages 2.2 nM to 240 nM), three in one and three in none, so single entries are noisy.

| CDR-H1 | CDR-H2 | CDR-H3 | Kd (apparent) | detected | control signals |
|---|---|---|---|---|---|
| GFDLNEYGIS | VIYADGRRTFYADKVK | GENAGTFDV | 770 pM | 6 of 6 | 0 of 18 |
| GFWLNSYGGS | VIYSDGRRTFYGDSVK | GRAAGTFDD | no signal | 0 of 6 | 0 of 18 |
| GFSLNSYGIS | VIYSDGRRTFYGDMVK | GEAAGTFDK | 13 nM | 6 of 6 | 0 of 18 |
| GFTLDSAGIS | VIYSDGRHTFYGDSVK | GRAIGTALS | no signal | 0 of 6 | 0 of 18 |
| GFDLNEYGIS | VIYADGMRTAYSDSVK | GSNAGTFDI | 6.9 nM | 6 of 6 | 0 of 18 |
| KFNLNSYGIS | VIYSDGKRTFYKDSVK | GRTAGTFDS | no signal | 0 of 6 | 0 of 18 |
| GFNLNEYGIS | VIYADGRRTAYADSVK | NQNMSGMVT | no signal | 0 of 6 | 0 of 18 |
| WFDLNSYGIS | VIYSDGRRTAYGDSVK | GRAAGTFDS | 2.1 nM | 6 of 6 | 1 of 18 |
| GFTLNEYGIS | VIYSDGRRTFYGDSVK | GEAAGTFDF | 4.5 nM | 1 of 6 | 0 of 18 |
| GFTLNDYGIS | VIYSDGRRTQYTDLVK | GRAAGTFDE | no signal | 0 of 6 | 0 of 18 |
| GFDLNEYGIS | VIYADGRRTFYADSVK | GTAAGTFDV | 590 pM | 6 of 6 | 0 of 18 |
| GYSLQDYGIS | VIYADGKRKSYAEDVK | GNSAGSFMD | no signal | 0 of 6 | 1 of 18 |
| GFTLNEYGIS | VIYSDGRRTFYADAVK | GRFAGTFDS | 19 nM | 6 of 6 | 0 of 18 |
| GFTLNNYGIS | VIYSDGRRTQYSDSVK | GRAAGTFDS | 89 nM | 3 of 6 | 0 of 18 |
| GFELNSYGIS | VIYSDGRRTFYGDMVK | GKTAGTFDS | 8.7 nM | 3 of 6 | 0 of 18 |
| GFDLNEYGIS | VIYADGMRTAYAESVK | GNVAGTFDI | 510 pM | 6 of 6 | 0 of 18 |
| GFDLDEYGIS | VIYADGVRTAYADSVK | GNTAGTFDV | 240 pM | 6 of 6 | 0 of 18 |
| GFDLNEYGIS | VIYADGMRTAYANSVK | GNVAGTFDI | 490 pM | 6 of 6 | 0 of 18 |
| GFQLNEYGIS | VIYSDGRRTFYGDSVK | GHAAGTFDK | 1.7 nM | 6 of 6 | 0 of 18 |
| GFDLNSYGIS | VIYSDGRRTFYGDSVK | GHAAGTFDQ | 3.7 nM | 6 of 6 | 1 of 18 |
| GFTLNSYGIS | VIYSDGRRTFYGDKVK | GRAAGTFDV | 6.7 nM | 2 of 6 | 0 of 18 |
| GFNLNEYGIS | VIYADGRRTFYSDSVK | GEAAGTFDE | 510 pM | 6 of 6 | 0 of 18 |
| GFTINSYGIS | VIYSDGRRTFYSDSVK | ERAAGTFDS | no signal | 0 of 6 | 0 of 18 |
| GFDLEKYGIS | VIYADGYRSAYAQNVK | GGHAGTFHF | no signal | 0 of 6 | 0 of 18 |
| GFSLNSYGIS | VIYSDGRRTFYIDSVK | GKAAGTFDT | 6.8 nM | 6 of 6 | 0 of 18 |
| GFNLDEYGIS | VIYADGYRRAYAQSVK | GYNSSTGVT | 270 nM | 1 of 6 | 1 of 18 |
| GFDLNEYGIS | VIYADGRRTFYVDSVK | GVNAGTFDL | 200 pM | 6 of 6 | 0 of 18 |
| GFDLNSYGIS | VIYSDGKRTFYIDSVK | GKAAGTFDV | 1.8 nM | 6 of 6 | 0 of 18 |
| GFSLNMYGIS | VIYADGRRTFYGDSVK | GRAAGTDDS | no signal | 0 of 6 | 1 of 18 |
| GFDLDEYGIS | VIYADGMRTAYSDSVK | GNEAGTFDL | 170 pM | 6 of 6 | 0 of 18 |
| GNSLDEYGIS | VIYADGMRTAYTDDFK | GVGSNTLVD | no signal | 0 of 6 | 0 of 18 |
| GFNLNEYGIS | VIYADGRRTFYADSVK | GEVAGTFDS | 100 pM | 6 of 6 | 0 of 18 |
| GFTLQEYGIS | VIYSDGRRTFYGDSVK | GRAAGTFDS | 2.8 nM | 6 of 6 | 0 of 18 |
| GFDLDEYGIS | VIYADGRRTYYADSVK | GQNAGTFDV | 47 pM | 6 of 6 | 0 of 18 |
| GFALNSYGIS | VIYSDGRRTFYGDSVK | GRAASTFDS | no signal | 0 of 6 | 0 of 18 |

Second part, the sequence after the result:

| Kd (apparent) | detected | control signals | CDR-H1 | CDR-H2 | CDR-H3 |
|---|---|---|---|---|---|
| 4.5 nM | 6 of 6 | 2 of 18 | GFDLNNYGIS | VIYSDGRRTFYGDSVK | GVAAGTFDS |
| no signal | 0 of 6 | 0 of 18 | GFDLNSYGIS | VIYSDGRRTFYGDSVK | GPAAGTFNS |
| 54 nM | 1 of 6 | 1 of 18 | GFTLNSYGIS | VIYSDGERTFYGDKVK | GEAAGTFDS |
| 6.1 nM | 6 of 6 | 0 of 18 | GFNLNSYGIS | VIYSDGRRTFYGDNVK | GQAAGTFDS |
| 1.6 nM | 6 of 6 | 0 of 18 | GFSLNEYGIS | VIYSDGRRTFYGDSVK | GRTAGTFDL |
| 2.8 nM | 6 of 6 | 0 of 18 | GFSLNSYGIS | VIYSDGRRTFYHDSVK | GTAAGTFDS |
| 300 pM | 6 of 6 | 1 of 18 | GFDLNEYGIS | VIYADGMRTAYSDSVK | GQVAGTFDV |
| no signal | 0 of 6 | 0 of 18 | GFTLNSYGIS | VIYSDGRRTFYTDSVK | GKQTGTFDS |
| no signal | 0 of 6 | 0 of 18 | GMDLNEYGIS | VIYADGQRRAYAANFK | GVNIDGFDF |
| 22 nM | 6 of 6 | 1 of 18 | GFQLNSYGIS | VIYSDGRRTFYADQVK | GRQAGTFDS |
| 330 pM | 6 of 6 | 0 of 18 | GFTLDEYGIS | VIYADGRRTFYSDSVK | GETAGTFDV |
| 410 pM | 6 of 6 | 0 of 18 | GFDLNEYGIS | VIYADGIRTAYADDVK | GQNAGTFDV |
| 240 pM | 6 of 6 | 0 of 18 | GFDLNEYGIS | VIYADGKRTAYADSVK | GQVAGTFDT |
| 230 pM | 6 of 6 | 0 of 18 | GFDLNEYGIS | VIYADGRRTFYLDSVK | GQLAGTFDQ |
| 450 pM | 6 of 6 | 0 of 18 | GFDLNEYGIS | VIYADGMRTFYADSVK | GNQAGTFDV |
| no signal | 0 of 6 | 0 of 18 | GYDLVEYGIS | VIYADGQRTMYADTVK | GHHGGIIDV |
| 1.0 nM | 6 of 6 | 0 of 18 | GFDLDEYGIS | VIYADGMRTFYADDVK | GNNAGTFDV |
| 370 pM | 6 of 6 | 0 of 18 | GFDLNEYGIS | VIYADGRRTAYSDSVK | GNVAGTFDS |
| no signal | 0 of 6 | 0 of 18 | GFDLNSYGIS | VIYSDGRRTAYGDSVK | GRAPGYFDS |
| 5.6 nM | 6 of 6 | 0 of 18 | GFDLNEYGIS | VIYADGMRTAYADDVK | GNQAGTFDL |
| 7.1 nM | 6 of 6 | 0 of 18 | GFTLNSYGIS | VIYSDGRRTFYGDSVK | GYAADTFDS |
| 14 nM | 6 of 6 | 0 of 18 | GFTLNSYGIS | VIYSDGRRTAYSDSVK | GQAAGTFDS |
| 280 pM | 6 of 6 | 0 of 18 | GFDLNEYGIS | VIYADGRRTYYADSVK | GEEAGTFNM |
| 160 nM | 1 of 6 | 1 of 18 | GQDINEYGIS | VIYADGLRKAYSQQVK | GQNLGDVKV |
| 2.2 nM | 6 of 6 | 0 of 18 | GFDLNEYGIS | VIYADGMRTAYADDVK | GENAGTFDV |
| no signal | 0 of 6 | 0 of 18 | GFTLESYGIS | VIYSDGRRTFYGDSVK | GQAAGLFDS |
| no signal | 0 of 6 | 0 of 18 | GFTLNDYGIS | VIYSDGRRTFYGDSVK | GRIAGTFKG |
| 29 nM | 5 of 6 | 0 of 18 | GFQLNDYGIS | VIYSDGRRTFYGDAVK | GRAAGTFDI |
| 290 pM | 6 of 6 | 0 of 18 | GFDLNEYGIS | VIYADGVRTAYADDVK | GNQAGTFDM |
| 3.6 nM | 6 of 6 | 0 of 18 | EFDLNEYGIS | VIYADGKRTFYADHVK | GVNAGVFDT |
| no signal | 0 of 6 | 0 of 18 | GFDLNEYGIS | VIYADGSRVAYAQNVK | GKNDAISSN |
| 270 nM | 2 of 6 | 0 of 18 | GFALNEYGIS | VIYADGSRSAYIESVK | GVHNIDVNV |
| 6.8 nM | 6 of 6 | 0 of 18 | GFDLNSYGIS | VIYSDGRRTFYGDSVK | GDAAGTFDS |
| 32 nM | 4 of 6 | 0 of 18 | GFTLNVYGIS | VIYSDGRRTFYGDSVK | GDAAGTFDS |
| 18 nM | 6 of 6 | 0 of 18 | GFTLNSYGIS | VIYSDGRRTFYGDSVK | GNQAGTFDS |
| 11 nM | 6 of 6 | 0 of 18 | GFTLNSYGIS | VIYADGRRTFYGDSVK | GEAAGSFDS |

Excerpt, the final 12 entries:

| CDR-H1 | CDR-H2 | CDR-H3 | Kd (apparent) | detected | control signals |
|---|---|---|---|---|---|
| GFDLNEYGIS | VIYADGMRTAYADDVK | GENAGTFDV | 2.2 nM | 6 of 6 | 0 of 18 |
| GFTLESYGIS | VIYSDGRRTFYGDSVK | GQAAGLFDS | no signal | 0 of 6 | 0 of 18 |
| GFTLNDYGIS | VIYSDGRRTFYGDSVK | GRIAGTFKG | no signal | 0 of 6 | 0 of 18 |
| GFQLNDYGIS | VIYSDGRRTFYGDAVK | GRAAGTFDI | 29 nM | 5 of 6 | 0 of 18 |
| GFDLNEYGIS | VIYADGVRTAYADDVK | GNQAGTFDM | 290 pM | 6 of 6 | 0 of 18 |
| EFDLNEYGIS | VIYADGKRTFYADHVK | GVNAGVFDT | 3.6 nM | 6 of 6 | 0 of 18 |
| GFDLNEYGIS | VIYADGSRVAYAQNVK | GKNDAISSN | no signal | 0 of 6 | 0 of 18 |
| GFALNEYGIS | VIYADGSRSAYIESVK | GVHNIDVNV | 270 nM | 2 of 6 | 0 of 18 |
| GFDLNSYGIS | VIYSDGRRTFYGDSVK | GDAAGTFDS | 6.8 nM | 6 of 6 | 0 of 18 |
| GFTLNVYGIS | VIYSDGRRTFYGDSVK | GDAAGTFDS | 32 nM | 4 of 6 | 0 of 18 |
| GFTLNSYGIS | VIYSDGRRTFYGDSVK | GNQAGTFDS | 18 nM | 6 of 6 | 0 of 18 |
| GFTLNSYGIS | VIYADGRRTFYGDSVK | GEAAGSFDS | 11 nM | 6 of 6 | 0 of 18 |